Legend:
[1] = target: truncated recombinant mouse macrophage metalloelastase; settings: read-out: IC50 for inhibition of degradation of [^3 H] elastin; pH 8.0, 37° C. overnight
[2] = target: T1, Human recombinant fibroblast collagenase (Homo sapiens, UniProt P03956); assay: collagenase activity, digestion of bovine type I collagen; assay type: biochemical; settings: 2 hours at 35° C., read-out: Ki for inhibition of collagenase
T1 sequence (P03956 100-469): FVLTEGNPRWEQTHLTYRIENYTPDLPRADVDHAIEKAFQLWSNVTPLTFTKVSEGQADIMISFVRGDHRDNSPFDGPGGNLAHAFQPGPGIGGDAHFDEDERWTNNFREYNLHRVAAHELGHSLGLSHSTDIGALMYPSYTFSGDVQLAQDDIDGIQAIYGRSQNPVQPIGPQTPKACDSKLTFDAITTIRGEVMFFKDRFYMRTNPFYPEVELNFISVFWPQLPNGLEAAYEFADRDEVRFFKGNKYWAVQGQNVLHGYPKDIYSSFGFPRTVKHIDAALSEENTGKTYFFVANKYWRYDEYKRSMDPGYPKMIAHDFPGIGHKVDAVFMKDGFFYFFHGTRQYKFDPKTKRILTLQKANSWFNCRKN

SMILES: COc1ccc(S(=O)(=O)N(Cc2cccnc2)[C@@H](C(=O)NO)C(C)C)cc1.Cl [N-hydroxy-2(R)-[[4-methoxybenzenesulfonyl](3-picolyl)amino]-3-methylbutanamide hydrochloride]
- IC50 [1]: ~0.008 µM
- Ki [2]: 0.062 µM
